# According to ChEMBL document CHEMBL1124899 (J Med Chem, 1990):
# Chains of the proteins cited; added tags and fusions are not shown.
# UniProt P61169, whole entry: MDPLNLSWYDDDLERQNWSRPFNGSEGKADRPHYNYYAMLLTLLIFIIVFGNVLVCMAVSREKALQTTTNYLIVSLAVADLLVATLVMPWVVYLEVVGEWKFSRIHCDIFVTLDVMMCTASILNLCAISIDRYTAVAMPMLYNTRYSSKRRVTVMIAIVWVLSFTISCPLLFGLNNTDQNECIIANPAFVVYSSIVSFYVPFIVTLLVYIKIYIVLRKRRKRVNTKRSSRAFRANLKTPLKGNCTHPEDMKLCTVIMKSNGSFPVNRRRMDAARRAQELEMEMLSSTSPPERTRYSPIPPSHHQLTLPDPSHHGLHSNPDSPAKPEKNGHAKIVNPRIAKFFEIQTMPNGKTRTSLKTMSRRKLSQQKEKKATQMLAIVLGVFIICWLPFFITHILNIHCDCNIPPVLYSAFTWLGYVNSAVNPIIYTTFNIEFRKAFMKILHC
# Biological target: D(2) dopamine receptor (Rattus norvegicus, UniProt P61169)
# Assay: Compound was evaluated for the inhibition of [3H]spiperone binding to dopamine receptor D2 of rat striatal membranes
# Type: cell membranes, Membrane
# Procedure, shortened: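 Rat striatal membranes were washed twice at 20,000g and suspended at 3.5 mg wet weight/mL in 50 mM Tris-HCl pH 7.4 with 120 mM NaCl, 5 mM KCl, 2 mM CaCl2, 1 mM MgCl2. Displacement of 0.1 nM [3H]spiperone (final) by 6-7 concentrations of test drug. Nonspecific binding defined with 1 μM (+)-butaclamol. Triplicates, repeated on three days. IC50 from log-probit plot.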
compound,measurement,value
CCN(CCc1ccccc1)CCc1ccc(F)c(O)c1,IC50,230 nM
